Substrate in the data set: COc1ccc(Cl)cc1C(=O)NCCc1ccc(S(=O)(=O)NC(=O)NC2CCCCC2)cc1
In words: cells, lysate or membranes named. Format: in vitro ADME, human. The settings on record: apparent Km, 37.0 °C.

For three proteins, Km and kcat results are on record in publication PMC3982398 (Biochemical pharmacology, 2009).

B1: cDNA-expressed CYP 1A1 (Homo sapiens) (protein)
chain: MLFPISMSATEFLLASVIFCLVFWVIRASRPQVPKGLKNPPGPWGWPLIGHMLTLGKNPHLALSRMSQQYGDVLQIRIGSTPVVVLSGLDTIRQALVRQGDDFKGRPDLYTFTLISNGQSMSFSPDSGPVWAARRRLAQNGLKSFSIASDPASSTSCYLEEHVSKEAEVLISTLQELMAGPGHFNPYRYVVVSVTNVICAICFGRRYDHNHQELLSLVNLNNNFGEVVGSGNPADFIPILRYLPNPSLNAFKDLNEKFYSFMQKMVKEHYKTFEKGHIRDITDSLIEHCQEKQLDENANVQLSDEKIINIVLDLFGAGFDTVTTAISWSLMYLVMNPRVQRKIQEELDTVIGRSRRPRLSDRSHLPYMEAFILETFRHSSFVPFTIPHSTTRDTSLKGFYIPKGRCVFVNQWQINHDQKLWVNPSEFLPERFLTPDGAIDKVLSEKVIIFGMGKRKCIGETIARWEVFLFLAILLQRVEFSVPLGVKVDMTPIYGLTMKHACCEHFQMQLRS
As for B1, under “other: CYP 1A1 supersomes”, the Km was determined as 40.2 ± 10 µM and the kcat was determined as 0.0333 ± 0.00333 s⁻¹.

B2: cDNA-expressed CYP19 (Homo sapiens) (protein)
chain: MVLEMLNPIHYNITSIVPEAMPAATMPVLLLTGLFLLVWNYEGTSSIPGPGYCMGIGPLISHGRFLWMGIGSACNYYNRVYGEFMRVWISGEETLIISKSSSMFHIMKHNHYSSRFGSKLGLQCIGMHEKGIIFNNNPELWKTTRPFFMKALSGPGLVRMVTVCAESLKTHLDRLEEVTNESGYVDVLTLLRRVMLDTSNTLFLRIPLDESAIVVKIQGYFDAWQALLIKPDIFFKISWLYKKYEKSVKDLKDAIEVLIAEKRRRISTEEKLEECMDFATELILAEKRGDLTRENVNQCILEMLIAAPDTMSVSLFFMLFLIAKHPNVEEAIIKEIQTVIGERDIKIDDIQKLKVMENFIYESMRYQPVVDLVMRKALEDDVIDGYPVKKGTNIILNIGRMHRLEFFPKPNEFTLENFAKNVPYRYFQPFGFGPRGCAGKYIAMVMMKAILVTLLRRFHVKTLQGQCVESIQKIHDLSLHPDETKNMLEMIFTPRNSDRCLEH
As to B2, where the note is “other: CYP19 supersomes”, the Km came to 16.5 ± 3.3 µM and the kcat was found to be 0.00667 ± 0.0005 s⁻¹.

B3: cDNA-expressed CYP 2C19 (Homo sapiens) (protein)
chain: MDPFVVLVLCLSCLLLLSIWRQSSGRGKLPPGPTPLPVIGNILQIDIKDVSKSLTNLSKIYGPVFTLYFGLERMVVLHGYEVVKEALIDLGEEFSGRGHFPLAERANRGFGIVFSNGKRWKEIRRFSLMTLRNFGMGKRSIEDRVQEEARCLVEELRKTKASPCDPTFILGCAPCNVICSIIFQKRFDYKDQQFLNLMEKLNENIRIVSTPWIQICNNFPTIIDYFPGTHNKLLKNLAFMESDILEKVKEHQESMDINNPRDFIDCFLIKMEKEKQNQQSEFTIENLVITAADLLGAGTETTSTTLRYALLLLLKHPEVTAKVQEEIERVIGRNRSPCMQDRGHMPYTDAVVHEVQRYIDLIPTSLPHAVTCDVKFRNYLIPKGTTILTSLTSVLHDNKEFPNPEMFDPRHFLDEGGNFKKSNYFMPFSAGKRICVGEGLARMELFLFLTFILQNFNLKSLIDPKDLDTTPVVNGFASVPPFYQLCFIPV
On to B3, for which, for the setting “other: CYP 2C19 supersomes”, the Km was found to be 15.3 ± 6.4 µM and the kcat was 0.0767 ± 0.0117 s⁻¹.

As a reminder, the Km is the concentration of substrate that gives half-maximal velocity. By kcat is commonly meant the maximal rate divided by the concentration of active sites.
